# scFv variants of Ab-14 (heavy chain) against a SARS-CoV-2 spike peptide

All variants were tested on one target, the spike HR2 peptide PDVDLGDISGINAS (SARS-CoV-2).

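The starting antibody came from a phage panning campaign against this peptide. AAYL49 was designed without a model: most single CDR substitutions and a random sample of double and triple ones. Affinity was read by AlphaSeq, a pooled yeast mating assay with surface-displayed partners. Mating (16 h, 30 °C) was followed by selection of diploids and sequencing of their barcodes. Each replicate has its own calibration line, from reference interactions of the BCL2 family. Mating was done three times.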

Parent: Ab-14, a human scFv built as VH, the linker GGGGSGGGGSGGGGS, VL. Only the CDRs of the heavy chain vary.
VH: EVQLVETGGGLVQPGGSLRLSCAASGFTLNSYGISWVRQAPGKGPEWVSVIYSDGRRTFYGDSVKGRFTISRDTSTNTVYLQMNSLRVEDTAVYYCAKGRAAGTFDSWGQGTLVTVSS
VL: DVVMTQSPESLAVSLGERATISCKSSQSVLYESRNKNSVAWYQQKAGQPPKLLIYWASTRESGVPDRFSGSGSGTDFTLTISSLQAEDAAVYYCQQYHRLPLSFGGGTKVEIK

Each variant is given by its three heavy chain CDRs, as the data file delimits them; those of the parent are GFTLNSYGIS, VIYSDGRRTFYGDSVK, GRAAGTFDS.
The read-out is the apparent dissociation constant on a log10 scale (nM): the lower, the stronger.
The mean shown is taken over the replicates in which the pair was detected.
"n.d." marks a missing value. The strain was present, yet no cells mated with the target were sequenced in that replicate, which points to weak or no binding.
Parent in this assay: reference entry 0.65, copy in this library 4.11 (one replicate of three).
Three control strains display no target. For library AAYL49, 15% of the pairings with them gave a signal, with a median of 4.06 and one signal in twenty below 2.83, so weak values seen in few replicates may be background. For each scFv, signals with the empty controls are counted beside the result, with their mean in brackets.

CDR-H1 | CDR-H2 | CDR-H3 | replicates, log10 nM | mean, log10 nM | empty controls
MFTLNSYGIS | VIYSDGRRTFYGMSVK | GRAQGTFDS | n.d. n.d. n.d. | n.d. | 0/9
GFTLNSYGIS | VIYSDGRRTFDGDSQK | GRAAGTFLS | 3.69 4.29 4.73 | 4.24 | 3/9 (4.18)
GFTLNSYGIS | VIYSDGDRTMYGDSVK | GRYAGTFDS | 1.06 1.36 2.20 | 1.54 | 0/9
GFTLNSWGAS | VIYSDGRRTFYGDSVK | GRAAGTFDS | n.d. n.d. n.d. | n.d. | 0/9
GFTLNSYVIT | VIYSDCRRTFYGDSVK | GRAAGTFDS | n.d. n.d. n.d. | n.d. | 0/9
GFTLNSYAIS | VIYSDFRRTFYGDSVK | GRQAGTFDS | n.d. n.d. n.d. | n.d. | 0/9
GFTLNSYGIS | GIYSDGRRIFYGDSVK | GMAAGTFDS | n.d. 4.17 n.d. | 4.17 | 3/9 (4.72)
GFTLWSYGIS | VIYSDGSRTFYGDSVK | GRAACTFDS | n.d. n.d. n.d. | n.d. | 0/9
GFTLNSYGIS | PICSDGRRTFYGDSVK | GVAAGTFDS | n.d. n.d. n.d. | n.d. | 1/9 (4.43)
GFTLNSYGIS | VIYSDGRRTKYGDSVK | GWAAHTFDS | n.d. 3.68 n.d. | 3.68 | 2/9 (4.57)
GFTLNSYGIS | VIYVDGRRTFYGGSVK | GRAAATFDS | n.d. 4.55 4.12 | 4.34 | 4/9 (4.01)
GFTLNSYGIS | VIYSDGRRTFYGDSVK | GSAAGTVDS | n.d. n.d. n.d. | n.d. | 1/9 (4.60)
GFTLNSYYIS | VIYSDGRRTFNGDSVK | GRAAGTKDS | n.d. n.d. n.d. | n.d. | 5/9 (4.90)
GFTLGSYGIS | VIYSDGHRTFYGDSVA | GRAAGTFDS | 1.47 1.33 2.01 | 1.60 | 1/9 (3.76)
GFTLNSYGIS | VIYSDHRHTFYGDSVK | GRATGTFDS | n.d. n.d. n.d. | n.d. | 1/9 (4.63)
GFTLMSYGIS | VIYSDGRRTFYIDSVK | GRAAGTFQS | n.d. n.d. n.d. | n.d. | 0/9
GFTLNSYGIS | VKYSDGRRTFYGDSVK | GYAAGSFDS | n.d. n.d. n.d. | n.d. | 1/9 (2.94)
GFTLNSYVIS | VIYSDARRTFYGDSVK | GRAAGTFDS | n.d. n.d. n.d. | n.d. | 0/9
LFTLNSYGIS | VDYSDGRRTFCGDSVK | GRAAGTFDS | n.d. 2.75 n.d. | 2.75 | 1/9 (3.88)
GFTLNSYEIS | VIYSYGRRTFYGDSVK | GRAAGTFDS | n.d. n.d. n.d. | n.d. | 1/9 (2.34)
GFTLNSYGIS | VIYSDGRRWTYGDSVK | GRAAGTFDF | 3.72 3.86 n.d. | 3.79 | 2/9 (4.25)
TFTLNSYGIS | VIYSDGRSTFYGDSVK | GMAAGTFDS | 3.76 n.d. n.d. | 3.76 | 0/9
GFTLNSYGIA | VIYEDGRRTFYGFSVK | GRAAGTFDS | n.d. n.d. n.d. | n.d. | 0/9
GFTLNFYGIV | VIYSDIRRTFYGDSVK | GRAAGTFDS | 4.05 n.d. n.d. | 4.05 | 2/9 (4.68)
GFTLNSDGIS | VIYSVGRRTFYGHSVK | GRAAGTFDS | n.d. n.d. 3.15 | 3.15 | 2/9 (3.89)
GFTLCSYGIS | VIYSNGNRTFYGDSVK | GRAAGTFDS | n.d. n.d. n.d. | n.d. | 4/9 (4.27)
GFTLNSYLIS | VIYSDGRRTFYGDSKK | GRAAGTFDP | n.d. n.d. n.d. | n.d. | 0/9
GWTLNSYGIS | VIYMDGRRTFYGDIVK | GRAAGTFDS | n.d. n.d. n.d. | n.d. | 2/9 (4.15)
GFTLNSYGIS | VIYNDGRRTFYGDSVK | HRAAITFDS | 4.62 n.d. n.d. | 4.62 | 2/9 (3.88)
GFTLNPYGIS | VIYSDGRRCFYTDSVK | GRAAGTFDS | n.d. n.d. n.d. | n.d. | 0/9
GKTLNSYGIS | VWYSDGRRTFYGDSVK | GRAAGTEDS | n.d. n.d. n.d. | n.d. | 3/9 (3.85)
GFTLNSYGIS | VIYSDERRTFYRDSVK | GRAAGTFDS | 4.65 4.07 5.65 | 4.79 | 4/9 (3.62)
GFEYNSYGIS | VIYSDGRRTFYGDSVK | GRAAGTFDS | n.d. n.d. n.d. | n.d. | 1/9 (3.68)
GFRLNSYGIS | VIYSDGRRTFYGDSVK | GRNAGTFDP | n.d. n.d. n.d. | n.d. | 0/9
GFTHNSYGIS | VIYSDGRTTFYGDSVK | GRAAYTFDS | 3.16 3.59 n.d. | 3.37 | 0/9
GFSLFSYGIS | VIYSDGRRTFYGDSVK | IRAAGTFDS | n.d. n.d. n.d. | n.d. | 0/9
GFTLNSYGIS | VIYSDGRRTFYGDSVK | CRAAGTFDS | 1.11 1.46 1.56 | 1.38 | 2/9 (4.10)
GFTLNSYGIS | VIYSEGRRTFYGDSNK | GRAAGTFDS | n.d. n.d. n.d. | n.d. | 0/9
GETLNSYGIS | WIYSDGRRTFYGDSVK | GRAAGTFDP | n.d. 4.56 n.d. | 4.56 | 2/9 (4.17)
GFTLNSEGIS | VQYSDGRRTFYGDSVK | TRAAGTFDS | n.d. n.d. n.d. | n.d. | 1/9 (4.24)
GFTGNSYGIS | VISSDGRRTFYGDSVK | GRYAGTFDS | n.d. n.d. n.d. | n.d. | 2/9 (3.09)
GFTLNSYGIS | VIYSDARRTFYRDDVK | GRAAGTFDS | n.d. 4.72 n.d. | 4.72 | 1/9 (2.78)
GFTLNSYGIS | NIYSDGRMTFYGDSVK | GRAAGDFDS | n.d. 4.95 4.23 | 4.59 | 3/9 (4.13)
GFTLNSYGII | VIYSDGPRTFYGDSVD | GRAAGTFDS | n.d. n.d. 4.98 | 4.98 | 1/9 (4.14)
GFTLNSYGIL | VIYSDGRRTFYGDSVA | GRAAGTFDS | 4.23 n.d. n.d. | 4.23 | 5/9 (3.95)
GFTLNSYGIS | VIYSDGRRTFYGDTEE | GRAAGTFDS | 4.32 3.89 n.d. | 4.11 | 8/9 (3.97)
GFTLQSYGIS | VIYSNGRRTFYGDSVK | GRAAQTFDS | n.d. n.d. n.d. | n.d. | 1/9 (4.13)
GFTLNSYGIS | VIYSDPRRTEGGDSVK | GRAAGTFDS | n.d. n.d. n.d. | n.d. | 1/9 (4.33)
GCTLNSYGGS | VIYSDGRRTFYGDSVK | GGAAGTFDS | n.d. n.d. n.d. | n.d. | 0/9
GFKLNSYGIT | VIYSDGRRTFYGVSVK | GRAAGTFDS | n.d. n.d. n.d. | n.d. | 1/9 (3.38)
GFTLNSYGIS | VIYSDGRRTFYGFSVK | SRAKGTFDS | n.d. 3.53 n.d. | 3.53 | 2/9 (3.60)
GQTLNSYGII | VIYSDGRRTYYGDSVK | GRAAGTFDS | n.d. n.d. n.d. | n.d. | 0/9

A selection of 4 entries from above:

CDR-H1 | CDR-H2 | CDR-H3 | replicates, log10 nM | mean, log10 nM | empty controls
GFTLNSYYIS | VIYSDGRRTFNGDSVK | GRAAGTKDS | n.d. n.d. n.d. | n.d. | 5/9 (4.90)
GCTLNSYGGS | VIYSDGRRTFYGDSVK | GGAAGTFDS | n.d. n.d. n.d. | n.d. | 0/9
GFTLNSYGIS | VIYSDGRRTFYGDSVK | CRAAGTFDS | 1.11 1.46 1.56 | 1.38 | 2/9 (4.10)
GFTLNSYGIS | VIYSDGRRTFDGDSQK | GRAAGTFLS | 3.69 4.29 4.73 | 4.24 | 3/9 (4.18)

The measurements come from Engelhart et al. 2022 (doi:10.1038/s41597-022-01779-4) through the FLAb antibody collection.